Biological target: GST-plakoglobin (UniProt P14923)
Experiment: pull-down; 10 pmols of GST-plakoglobin incubated with 500 µg of whole-cell extracts from MEFs PS (−/−) transfected with the PS1 forms; glutathione-Sepharose; Western blot with anti-PS1 (aa 1-65); three experiments scanned and quantified with respect to the input

non-processed presenilin 1 (Myc/His-tagged full-length human PS1) (from UniProt P49768 1-467) (natural protein; other documents disagree on this pair)
fold binding relative to pPS1: 10 fold
